Experimental data: ChEMBL document CHEMBL3272190, “(2-exo-3-endo)-2-Aryltropane-3-carboxylic esters, a new class of narcotic antagonists” (J Med Chem, 1978)

Test system: Mus musculus
Test: Antiwrithing activity in sc dosed mouse assessed as prevention of acetylcholine-induced abdominal constriction response
Conditions: Abdomen

`C=CCN1CC[C@]23c4c5ccc(O)c4O[C@H]2[C@@H](O)C=C[C@H]3[C@H]1C5` [NALORPHINE] was tested. Which ED50 did it give?
The ED50 was 2.8 mg/kg.
